For one compound, IC50 results are on record in US7476676B2, “Methods for increasing bone formation using inhibitors of glycogen synthase kinase-3β” (Roche Palo Alto LLC, priority 2002, dated 2009).

By UniProt entry, the sequences of proteins in these tests, tags left out. Residues count along the entry.
UniProt G1T8E2, 1-432: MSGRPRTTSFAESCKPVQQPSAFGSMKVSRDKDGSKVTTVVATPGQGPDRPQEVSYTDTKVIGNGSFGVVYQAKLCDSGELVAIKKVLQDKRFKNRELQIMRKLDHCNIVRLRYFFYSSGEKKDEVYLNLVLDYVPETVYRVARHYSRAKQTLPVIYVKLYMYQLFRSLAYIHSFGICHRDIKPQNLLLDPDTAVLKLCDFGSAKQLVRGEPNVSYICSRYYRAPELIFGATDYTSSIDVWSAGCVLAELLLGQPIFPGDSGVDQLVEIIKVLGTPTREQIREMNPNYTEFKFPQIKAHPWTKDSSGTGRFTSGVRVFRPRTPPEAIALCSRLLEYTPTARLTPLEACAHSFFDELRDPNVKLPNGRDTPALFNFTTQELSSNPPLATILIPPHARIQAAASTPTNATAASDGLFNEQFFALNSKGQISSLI

This assay concerns the target truncated form of recombinant rabbit GSK-3β enzyme (Oryctolagus cuniculus, UniProt G1T8E2). The assay can be described thus: Inhibition of Glycogen Synthase Kinase-3β in vitro assay. As to conditions: tested form: HCl. Format: biochemical.

As for `Cn1cc(C2=C(c3cccc(OCCN)c3)C(=O)NC2=O)c2ccccc21`, the IC50 – broadly, the concentration needed to halve the response being measured – came to 20 nM.
